# Most compounds without a hit are left out; they make up all but 2.1% or so of the library.
# MITF act: MITF TRPM1 promoter activation in melanoma cells; SK-MEL-5 TRPM1-promoter luciferase, 24 h; % of positive control, neutral wells = 0; activation, % at 12.5 µM; hit rate 0.75% among 300,000;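 active = mean activation of at least 80% with every replicate also reaching 80%; inconclusive = mean reaches 80% but some replicate falls short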;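 also: 0% = neutral control wells and 100% = parthenolide positive control wells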
# MITF TRPM1 inh: inhibitors of MITF-driven TRPM1 promoter in melanoma cells; AID 488899; SK-MEL-5 TRPM1 promoter luciferase, 24 h; hit rate 0.83% among 330,000; inhibition, % at 12.5 µM;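 active = mean inhibition across replicates of 60% or more, whatever share of single replicates reaches that level; inconclusive = some that reach 60%, reason not given; inactive = mean inhibition across replicates below 60%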
# Wnt act: activates Wnt/beta-catenin signaling in a reporter cell assay. hit rate 1.2% among 300,000. AID 743398. activator, plate reader. activation, % at 9.35 µM; in the data active = activation above about 30%, passing the limit was not always enough; inconclusive = no clear call, values can overlap the other calls;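 also: 0% = neutral control wells and 100% = positive control wells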
# Yeast UUG start: alters start codon recognition fidelity in yeast | S. cerevisiae UUG-firefly luciferase reporter, luminescence/redox ratio | activity score, % at 18.7 µM | hit rate 0.13% among 350,000 | AID 602363;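 active means replicate mean at a twofold rise or more, about +100% in these data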;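 further: firefly luciferase made from a UUG start codon reports start codon fidelity; reporter light over untreated wells divided by growth signal over untreated wells; some hits fall short of that in this replicate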
# miR-122 sensor: inhibitors of miR-122 in Huh7 cells. Huh7 miR-122 Renilla luciferase sensor, 48 h; neutral wells = 0, positive control = 100. activation (reporter increase), % at 12.5 µM. hit rate 0.3% among 340,000;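 active = mean replicate activation score at least 90 and every replicate individually at or above 90; inconclusive = only one of the two criteria met; inactive = neither criterion met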;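 also: higher luciferase means less miR-122 activity so hits act as miR-122 inhibitors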
# PGC1a acetyl inh: PGC1a acetylation modulation, inhibitor mode; hit rate 0.17% among 350,000; AID 651687; inhibition, % at 15.6 µM; U2OS PGC1a acetylation, AlphaScreen anti-acetyl-lysine; with virally co-expressed GCN5 acetyltransferase;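 active = every replicate shows inhibition of at least 40%; inconclusive = mean inhibition at least 40% but some replicate below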;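 also: 0% = neutral control wells and 100% = positive control wells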
# Starred values were filed as active, the others as inactive; ? = inconclusive; / = no result given; [ ] = remark or other dose.
SMILES,MITF act,MITF TRPM1 inh,Wnt act,Yeast UUG start,miR-122 sensor,PGC1a acetyl inh
Cc1cc(Cl)c2oc(C(=O)NCCN3CCCCC3CO)c(C)c2c1 (stereo unspecified),32,-33,3,-2,/,3
O=C(Nn1cnc2ccccc2c1=O)c1c(F)cccc1F,-9,7,44*,-18,-16,-11
O=C(Nn1cnc2ccccc2c1=O)c1ccccc1Cl,23,-26,/,-15,2,-29
CNC(=O)COC(=O)c1ccccc1C(=O)c1ccc(Cl)c([N+](=O)[O-])c1,-89,89*,-24,/,/,-47
O=C(COC(=O)c1cc([N+](=O)[O-])ccc1Cl)NC1CCCC1,-13,-19,1,-3,-1,-13
CC(C)OC(=O)c1ccccc1C(=O)c1ccc(N)c([N+](=O)[O-])c1,2,-2,-2,/,/,/
O=C(COC(=O)c1ccccc1C(=O)c1ccc(Cl)c([N+](=O)[O-])c1)NC1CC1,-79,81*,-22,-8,-27,-94
CCc1ccc2c(c1)/C(=C/C(=O)c1cccs1)C(=O)N2,/,70*,/,-13,-3,-33
Cc1cccc2c1NC(=O)/C2=C\C(=O)c1cccs1,-32,32,/,-14,27,/
CC1CCN(C(=S)c2ccc(O)cc2)CC1,15,-12,/,-23,248*,/

# The closing 4 records of the part above are carried over, then new ones follow:
SMILES,MITF act,MITF TRPM1 inh,Wnt act,Yeast UUG start,miR-122 sensor,PGC1a acetyl inh
O=C(COC(=O)c1ccccc1C(=O)c1ccc(Cl)c([N+](=O)[O-])c1)NC1CC1,-79,81*,-22,-8,-27,-94
CCc1ccc2c(c1)/C(=C/C(=O)c1cccs1)C(=O)N2,/,70*,/,-13,-3,-33
Cc1cccc2c1NC(=O)/C2=C\C(=O)c1cccs1,-32,32,/,-14,27,/
CC1CCN(C(=S)c2ccc(O)cc2)CC1,15,-12,/,-23,248*,/
O=C(N[C@H]1CC[C@H](CCNC(=O)C2CCCCC2)O[C@H]1CO)c1ccncc1,/,/,/,-13,/,-6
COc1ccc(N=c2cc(-c3ccc(OC)cc3)oc3ccccc23)cc1,20,-17,119*,/,/,/
Cc1cc(NS(=O)(=O)c2ccccc2)cc(Cl)c1O,/,-11,/,-7,?,2
Cc1ccc(S(=O)(=O)Nc2cc(C)c(O)c(S(=O)(=O)c3ccc(C)cc3)c2)cc1,/,6,0,-3,140*,-13
C[C@@H]1CN([C@H](C)CO)C(=O)Cc2cc(NC(=O)CCN3CCOCC3)ccc2O[C@@H]1CN(C)Cc1ccccc1,/,/,/,-5,1[16.7 µM],/
COc1ccc(-c2cn3cc(C(F)(F)F)cc(Cl)c3n2)cc1,44,-34,7,/,/,-1
Fc1ccc(-c2cn3cc(C(F)(F)F)cc(Cl)c3n2)cc1,39,-36,49*,-20,8,-10
Fc1ccccc1C1CCN(Cc2nc(CC3CC3)no2)C1 (stereo unspecified),45,-42,44*,/,/,13
Cc1c(C(=O)Nc2ccccc2)sc2nc(-c3ccccc3)cn12,27,-27,58*,-13,0,-35
CCC(=O)N[C@@H]1CC[C@H](CC(=O)NCC2CCCCC2)O[C@H]1CO,/,/,/,-17,-4[16.7 µM],-5
Cn1cccc1C(=O)NC1CCCCCC1,96*,-88,17,-21,-7,-9
CC1CCC(NC(=O)c2cccn2C)CC1 (stereo unspecified),77,-71,42*,-14,8,/
Cc1onc(-c2ccccc2)c1C(=O)NC1CCC(C)CC1 (stereo unspecified),6,-2,444*,-7,-6,-6
N#Cc1cccc(-c2ccc3c(c2)[C@@H]2[C@@H](CCN2C(=O)C2CCCCC2)[C@H](CO)N3)c1,/,/,/,2,-10[16.7 µM],4
COc1ccc(S(=O)(=O)N[C@H]2C=C[C@H](CC(=O)N3CCC(Cc4ccccc4)CC3)O[C@@H]2CO)cc1,/,/,/,8,/,-15
C[C@@H]1CN([C@H](C)CO)C(=O)Cc2cc(NC(=O)C3CCCCC3)ccc2O[C@H]1CN(C)C(=O)Nc1ccc(C(F)(F)F)cc1,/,/,/,-1,-3[16.7 µM],1
COc1cc(/C=C/c2nc3ccccc3c(=O)[nH]2)ccc1OC(F)F,?,-83,35*,-4,-6,2
C=CCOc1cccc(/C=C/c2nc3ccccc3c(=O)[nH]2)c1,82*,-71,12,-18,-1,-10
Cc1ccccc1/C=C/c1nc2ccccc2c(=O)[nH]1,40,-44,39*,/,4,16
C[C@@H]1CN([C@H](C)CO)C(=O)c2cccc(NC(=O)C3CCCCC3)c2O[C@H]1CN(C)S(=O)(=O)c1cccs1,/,/,/,3,-15[16.7 µM],6
CC(C)c1cn(CC[C@@H]2CC[C@H](NS(=O)(=O)c3ccccc3)[C@H](CO)O2)nn1,/,/,/,-26,/,2
O=C(COc1ccccc1F)N/N=C1\CCCc2ccccc21,71,-67,33*,3,-2,6
